BindingDB's records for doi:10.1146/annurev.pa.30.040190.003221 (National Institute For Medical Research, 1990)

The chains behind the UniProt entries cited, without tags or fusion partners. Where a name states a change or a piece, a line headed by the entry shows the natural chain unless it says otherwise.
UniProt P08482: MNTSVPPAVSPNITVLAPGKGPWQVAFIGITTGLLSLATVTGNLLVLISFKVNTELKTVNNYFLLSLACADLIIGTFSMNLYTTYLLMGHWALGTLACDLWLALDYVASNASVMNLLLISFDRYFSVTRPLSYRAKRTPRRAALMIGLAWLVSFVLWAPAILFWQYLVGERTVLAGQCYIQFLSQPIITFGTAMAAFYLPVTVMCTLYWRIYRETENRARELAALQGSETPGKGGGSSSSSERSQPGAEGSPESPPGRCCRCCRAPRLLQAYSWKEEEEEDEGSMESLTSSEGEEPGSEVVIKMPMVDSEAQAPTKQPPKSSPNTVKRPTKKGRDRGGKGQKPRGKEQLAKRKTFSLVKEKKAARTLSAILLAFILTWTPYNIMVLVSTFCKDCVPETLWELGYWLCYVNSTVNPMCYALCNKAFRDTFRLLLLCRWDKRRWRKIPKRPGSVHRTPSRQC

Target: Muscarinic acetylcholine receptor M1 (Rattus norvegicus, UniProt P08482)

Ki: 79.4 nM
Structure (SMILES): COc1ccccc1CNCCCCCCNCCCCCCCCNCCCCCCNCc1ccccc1OC [METHOCTRAMINE]
